B1: RAC-alpha serine/threonine-protein kinase (Homo sapiens), P31749 (parent)
chain: MSDVAIVKEGWLHKRGEYIKTWRPRYFLLKNDGTFIGYKERPQDVDQREAPLNNFSVAQCQLMKTERPRPNTFIIRCLQWTTVIERTFHVETPEEREEWTTAIQTVADGLKKQEEEEMDFRSGSPSDNSGAEEMEVSLAKPKHRVTMNEFEYLKLLGKGTFGKVILVKEKATGRYYAMKILKKEVIVAKDEVAHTLTENRVLQNSRHPFLTALKYSFQTHDRLCFVMEYANGGELFFHLSRERVFSEDRARFYGAEIVSALDYLHSEKNVVYRDLKLENLMLDKDGHIKITDFGLCKEGIKDGATMKTFCGTPEYLAPEVLEDNDYGRAVDWWGLGVVMYEMMCGRLPFYNQDHEKLFELILMEEIRFPRTLGPEAKSLLSGLLKKDPKQRLGGGSEDAKEIMQHRFFAGIVWQHVYEKKLSPPFKPQVTSETDTRYFDEEFTAQMITITPPDQDDSMECVDSERRPHFPQFSYSASGTA
partner: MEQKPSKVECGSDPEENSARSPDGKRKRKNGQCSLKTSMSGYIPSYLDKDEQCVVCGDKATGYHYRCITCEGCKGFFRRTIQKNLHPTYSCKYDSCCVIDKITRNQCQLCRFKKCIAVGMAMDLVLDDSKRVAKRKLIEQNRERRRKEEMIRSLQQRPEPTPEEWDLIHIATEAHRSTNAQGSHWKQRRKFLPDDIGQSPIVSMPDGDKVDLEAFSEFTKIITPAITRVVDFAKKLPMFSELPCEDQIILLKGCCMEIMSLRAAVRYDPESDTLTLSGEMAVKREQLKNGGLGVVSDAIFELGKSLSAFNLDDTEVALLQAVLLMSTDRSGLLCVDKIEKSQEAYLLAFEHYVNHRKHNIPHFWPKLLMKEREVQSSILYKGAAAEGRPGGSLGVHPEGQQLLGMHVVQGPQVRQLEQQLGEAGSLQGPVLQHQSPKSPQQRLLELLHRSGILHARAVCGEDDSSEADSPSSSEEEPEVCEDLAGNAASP
B2: RAC-alpha serine/threonine-protein kinase (Homo sapiens), P31749 (parent)
chain: B1 chain
partner: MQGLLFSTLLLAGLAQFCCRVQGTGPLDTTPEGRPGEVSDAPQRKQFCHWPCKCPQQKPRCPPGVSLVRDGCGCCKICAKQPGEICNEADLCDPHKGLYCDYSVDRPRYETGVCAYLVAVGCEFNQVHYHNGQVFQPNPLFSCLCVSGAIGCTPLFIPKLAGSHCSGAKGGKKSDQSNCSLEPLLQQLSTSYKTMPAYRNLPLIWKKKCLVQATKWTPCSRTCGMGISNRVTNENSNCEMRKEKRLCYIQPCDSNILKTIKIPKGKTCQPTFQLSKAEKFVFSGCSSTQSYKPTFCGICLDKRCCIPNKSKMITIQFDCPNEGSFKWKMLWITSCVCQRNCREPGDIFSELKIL
B3: RAC-alpha serine/threonine-protein kinase (Homo sapiens), P31749 (parent)
chain: B1 chain
partner: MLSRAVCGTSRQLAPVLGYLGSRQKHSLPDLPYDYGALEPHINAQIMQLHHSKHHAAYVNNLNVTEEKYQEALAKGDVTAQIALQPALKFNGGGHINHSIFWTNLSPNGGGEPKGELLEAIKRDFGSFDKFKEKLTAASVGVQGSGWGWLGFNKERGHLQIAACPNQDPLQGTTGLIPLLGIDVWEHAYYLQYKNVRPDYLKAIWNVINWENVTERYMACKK
B4: RAC-alpha serine/threonine-protein kinase (Homo sapiens), P31749 (parent)
chain: B1 chain
partner: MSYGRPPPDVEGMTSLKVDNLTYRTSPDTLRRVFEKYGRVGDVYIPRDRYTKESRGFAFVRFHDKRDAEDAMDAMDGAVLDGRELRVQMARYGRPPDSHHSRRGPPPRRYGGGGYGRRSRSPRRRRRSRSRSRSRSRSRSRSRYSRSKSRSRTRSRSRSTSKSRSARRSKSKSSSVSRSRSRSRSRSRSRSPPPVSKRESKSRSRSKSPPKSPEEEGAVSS
B5: RAC-alpha serine/threonine-protein kinase (Homo sapiens), P31749 (parent)
chain: B1 chain
partner: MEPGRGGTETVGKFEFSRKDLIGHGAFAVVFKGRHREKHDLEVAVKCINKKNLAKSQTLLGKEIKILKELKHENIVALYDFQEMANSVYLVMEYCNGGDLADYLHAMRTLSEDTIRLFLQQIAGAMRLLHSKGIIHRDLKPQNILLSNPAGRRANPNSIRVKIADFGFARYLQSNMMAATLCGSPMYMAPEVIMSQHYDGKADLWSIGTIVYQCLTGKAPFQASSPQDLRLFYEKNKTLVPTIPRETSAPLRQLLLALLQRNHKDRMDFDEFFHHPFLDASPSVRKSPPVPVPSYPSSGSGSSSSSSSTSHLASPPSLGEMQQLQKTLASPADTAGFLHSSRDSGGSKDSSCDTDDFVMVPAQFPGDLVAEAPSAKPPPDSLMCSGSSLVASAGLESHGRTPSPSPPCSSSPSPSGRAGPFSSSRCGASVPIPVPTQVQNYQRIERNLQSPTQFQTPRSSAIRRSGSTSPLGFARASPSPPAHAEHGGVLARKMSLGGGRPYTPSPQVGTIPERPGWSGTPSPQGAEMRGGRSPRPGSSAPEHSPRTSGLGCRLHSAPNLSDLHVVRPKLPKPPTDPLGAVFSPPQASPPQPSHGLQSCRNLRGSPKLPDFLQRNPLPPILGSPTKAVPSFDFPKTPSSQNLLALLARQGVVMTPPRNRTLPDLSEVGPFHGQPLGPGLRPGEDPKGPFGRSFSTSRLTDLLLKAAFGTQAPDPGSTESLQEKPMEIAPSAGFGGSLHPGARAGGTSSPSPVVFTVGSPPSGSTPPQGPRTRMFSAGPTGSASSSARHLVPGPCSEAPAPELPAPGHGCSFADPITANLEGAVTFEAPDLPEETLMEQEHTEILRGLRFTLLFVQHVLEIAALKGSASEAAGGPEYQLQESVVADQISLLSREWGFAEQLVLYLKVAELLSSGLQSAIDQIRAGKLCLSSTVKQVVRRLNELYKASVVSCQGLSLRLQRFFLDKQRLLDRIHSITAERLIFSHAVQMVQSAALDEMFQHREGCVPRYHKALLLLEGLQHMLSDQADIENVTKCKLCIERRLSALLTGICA
B6: RAC-alpha serine/threonine-protein kinase (Homo sapiens), P31749 (parent)
chain: B1 chain
partner: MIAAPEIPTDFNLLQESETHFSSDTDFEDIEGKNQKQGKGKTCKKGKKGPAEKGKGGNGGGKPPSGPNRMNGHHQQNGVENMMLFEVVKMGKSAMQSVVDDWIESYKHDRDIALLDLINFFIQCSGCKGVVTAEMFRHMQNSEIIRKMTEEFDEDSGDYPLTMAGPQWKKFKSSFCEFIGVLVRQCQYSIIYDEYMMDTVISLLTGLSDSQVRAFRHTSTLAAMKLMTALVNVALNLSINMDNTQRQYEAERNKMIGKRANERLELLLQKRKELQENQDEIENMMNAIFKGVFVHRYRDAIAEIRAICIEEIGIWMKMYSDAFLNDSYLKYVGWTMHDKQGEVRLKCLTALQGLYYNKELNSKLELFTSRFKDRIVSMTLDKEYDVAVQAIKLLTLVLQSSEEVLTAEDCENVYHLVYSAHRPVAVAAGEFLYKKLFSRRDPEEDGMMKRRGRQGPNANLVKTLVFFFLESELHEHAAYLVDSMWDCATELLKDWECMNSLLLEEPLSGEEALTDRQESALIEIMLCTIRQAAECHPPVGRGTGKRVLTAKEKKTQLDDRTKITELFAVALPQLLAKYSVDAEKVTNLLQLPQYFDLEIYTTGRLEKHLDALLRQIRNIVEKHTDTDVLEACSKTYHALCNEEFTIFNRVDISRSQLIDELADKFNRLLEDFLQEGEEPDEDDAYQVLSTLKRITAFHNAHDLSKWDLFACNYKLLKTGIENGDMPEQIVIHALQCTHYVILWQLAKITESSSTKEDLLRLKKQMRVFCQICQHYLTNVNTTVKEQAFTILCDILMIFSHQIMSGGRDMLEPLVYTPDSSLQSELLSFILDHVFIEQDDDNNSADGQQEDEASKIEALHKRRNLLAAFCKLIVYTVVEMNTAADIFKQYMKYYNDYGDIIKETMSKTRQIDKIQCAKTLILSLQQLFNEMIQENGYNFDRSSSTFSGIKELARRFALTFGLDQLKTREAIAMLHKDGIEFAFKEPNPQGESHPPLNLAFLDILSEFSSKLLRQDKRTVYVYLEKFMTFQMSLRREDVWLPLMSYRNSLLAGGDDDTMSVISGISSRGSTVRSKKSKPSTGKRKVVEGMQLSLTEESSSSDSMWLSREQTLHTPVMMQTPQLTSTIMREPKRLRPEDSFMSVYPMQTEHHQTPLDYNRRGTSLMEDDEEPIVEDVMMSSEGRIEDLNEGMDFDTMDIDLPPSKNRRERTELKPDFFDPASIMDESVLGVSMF

The text below walks through data of IntAct's records for PubMed 35512704.

In the first experiment the parent is B1. Conditions: with tha_human THRA.
For E17K, the “effect of a mutation on the interaction” value is “causing an interaction”.

The variants in the next experiment derive from B1. Conditions: with tha_human THRA. The source holds these as a separate data set.
For E17K, the “effect of a mutation on the interaction” value is given as “increasing interaction strength”.

Variants of B2 are the subject of the next experiment. The settings on record: with ccn6_human CCN6, O95389.
Turning to E17K, the “effect of a mutation on the interaction” value is given as “causing an interaction”.

In the next experiment the parent is B2. The settings on record: with ccn6_human CCN6, O95389. The source holds these as a separate data set.
Take E17K: the “effect of a mutation on the interaction” value is “increasing interaction strength”.

The variants in the next experiment derive from B3. The settings on record: with sodm_human SOD2, P04179.
As to E17K, the “effect of a mutation on the interaction” value is listed as “causing an interaction”.

In another experiment the parent is B4. The settings on record: with srsf2_human SRSF2, Q01130.
For the variant E17K, the “effect of a mutation on the interaction” value is “causing an interaction”.

Another experiment covers variants of B5. The settings on record: with ulk1_human ULK1, O75385.
Take E17K: the “effect of a mutation on the interaction” value is listed as “causing an interaction”.

In a further experiment the parent is B6. Conditions: with stag2_human STAG2, Q8N3U4.
Take E17K: the “effect of a mutation on the interaction” value is recorded as “causing an interaction”.

In a further experiment the parent is B6. Conditions: with stag2_human STAG2, Q8N3U4. This is another data set of the same source.
With E17K, the “effect of a mutation on the interaction” value is recorded as “increasing interaction strength”.
